Data reported in ChEMBL document CHEMBL1145005 (J Med Chem, 2003).
pIC50: −log10 of the molar value.

Target: Aldo-keto reductase family 1 member B1 (Homo sapiens, UniProt P15121)
Assay: Inhibition of human recombinant Aldose reductase […]

## O=C(O)Cc1nn(Cc2nc3cc(C(F)(F)F)ccc3s2)c(=O)c2ccccc12 [ZOPOLRESTAT]
  pIC50: 8.40
